Results published in US20090036518A1, “PHARMACEUTICAL COMPOSITION CONTAINING FLAVONOIDS” (TAIPEI MEDICAL UNIVERSITY, priority 2005, published 2009).

System: high affinity rolipram binding sites (HARBS) of the PDE4 (PDE4H)
Assay: Assay II: replacement of [3H]-rolipram bound on particulate HARBS of whole brain
Parameters: species or system guinea pig
Settings: ratio of HARBS EC50 to PDE4 IC50
Method: The binding experiments are carried on basis of the methods of Schneider et al and Zhao et al with a small modification. Under a protocol approved by the Animal Care and Use Committee of Taipei Medical University, five male guinea pigs (Hartley), weighing 500-600 g, are anesthetized. The whole brains taken therefrom are homogenized with in 10 volumes of cold medium (pH 6.5) containing 20 mM Bis-tris, 2 mM benzamidine, 2 mM EDTA, 50 mM sodium chloride, 0.1 mM phenylmethanesulfonyl fluoride (PMSF), and 1 mM dithiothreitol. At 4[…], the homogenate is centrifuged at 170 g for 15 min for removing blood vessels and connective tissues, and the supernatant thereof is then re-centrifuged at 40,000 g for 30 min for separating the particulates from the cytosol of cells.
The final concentration of [^3H]-rolipram is 2 nM. […] After incubation, the reaction is stopped by transferring the reaction vessel to a bath of crashed ice. Then the reaction mixture is filtered through a punched glass fiber filter (Whatman GF/B) placed in a mini funnel, which is adopted to a 1.5 ml of Eppendorff's tube for collecting the filtrate in the mini centrifuge at 1000 rpm (100 g) for 10 seconds. […] The Whatman GF/B filter is mixed with 2 ml of cocktail and counted by the β-scintillation counter (Backman, Fullerton, Calif., USA) for counting the radioactivity thereof.

Question: With COc1ccc(C2CC(=O)c3c(O)cc(O)cc3O2)cc1O (stereo not shown) [Hesperetin] as the compound, how does the “PDE4H/PDE4L ratio (EC50/IC50)” value read?
Answer: >11
